{
  "sequences": {"note": "Chains of the proteins cited; added tags and fusions are not shown.", "UniProt Q9NR56, whole entry": "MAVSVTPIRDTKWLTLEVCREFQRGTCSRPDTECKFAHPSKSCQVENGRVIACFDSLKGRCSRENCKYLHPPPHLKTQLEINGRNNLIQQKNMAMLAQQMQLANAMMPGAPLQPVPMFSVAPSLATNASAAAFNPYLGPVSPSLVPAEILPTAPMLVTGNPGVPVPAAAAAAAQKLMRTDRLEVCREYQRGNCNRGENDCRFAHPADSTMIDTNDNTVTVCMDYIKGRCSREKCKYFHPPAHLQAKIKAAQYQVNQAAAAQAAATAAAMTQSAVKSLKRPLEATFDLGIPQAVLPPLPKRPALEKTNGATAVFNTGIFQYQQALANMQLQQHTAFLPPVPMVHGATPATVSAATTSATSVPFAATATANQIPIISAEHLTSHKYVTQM"},
  "source": "PubChem BioAssay AID493205",
  "about": "(National Center for Advancing Translational Sciences (NCATS), 2011)",
  "note": "This is a selection; strong and weak results do not stand in their true shares. Records with an inconclusive call do not appear. Activity calls are given as the source filed them. Calls follow the shape of the dose curve; as a rule, active = well fitted inhibition curve with a large enough effect; inconclusive = small, poorly fitted or top-dose-only effect, or effect the other way; inactive = no such curve, though single readings can be large or run the other way.",
  "data": [
    {"biological_target": "Muscleblind-like protein 1 (Homo sapiens) (UniProt Q9NR56)", "assay": "qHTS Assay for Inhibitors of MBNL1-poly(CUG) RNA binding: Initial hit validation in AlphaScreen assay for MBNL1-(CUG)12 binding", "conditions": "AlphaScreen MBNL1-His / biotin-(CUG)12 binding", "source_text": "NIH Chemical Genomics Center [NCGC] NIH Molecular Libraries Probe Production Centers Network [MLPCN] MLPCN Grant: R03 MH087421-01 Assay Submitter (PI): Charles Thornton NCGC Assay Overview: Expanded CTG repeats in the 3' untranslated region of the DM protein kinase (DMPK) gene causes type I myotonic dystrophy (DM1). DM1 is a multi-systemic disease with a prevalence of 1/7000. Clinical features include myotonia, progressive muscle weakness and wasting, cardiac arrhythmia, insulin resistance, hypersomnolence, cataracts, and other symptoms. The pathogenic effect of expanded CTG repeats stems from deleterious effects of the mutant transcript. CUGexp mRNA accumulates in nuclear foci and sequesters proteins of the muscleblind family, of which MBNL1 is the most common family member in skeletal muscles. […]\nNCGC Assay Protocol Summary: This is a proximity-based binding assay with MBNL1-His and Biotin-(CUG)12 RNA. […] The AC50 values were determined from concentration-response data modeled with the standard Hill equation Assay buffer: 20mM HEPES, 110mM KCl, 10mM NaCl, 2mM MgCl2, 2mM CaCl2, 5mM DTT, 0.1% BSA, 0.05% Tween 20 1536-well assay protocol for the MBNL1-(CUG)12 binding assay: (1) Add 2 ul/well 20nM MBNL1-His, 20nM Biotin-(CUG)12 (2) Add 23 nL compounds in DMSO solution. […]", "values": [
      {"compound": "C/C1=C2N=C(/C=C3N=C(/C(C)=C4\\[N-][C@@](C)([C@H]5N=C1[C@@](C)(CCC(=O)NC[C@H](C)OP(=O)([O-])O[C@@H]1[C@H](O)[C@H](n6cnc7cc(C)c(C)cc76)O[C@@H]1CO)[C@@H]5CC(N)=O)[C@](C)(CC(N)=O)[C@H]4CCC(N)=O)[C@@](C)(CC(N)=O)[C@@H]\\3CCC(N)=O)C(C)(C)[C@@H]/2CCC(N)=O.[C-]#N.[Co+3]", "Potency": "active: 7.83 µM"},
      {"compound": "N#[O+].[C-]#N.[C-]#N.[C-]#N.[C-]#N.[C-]#N.[Fe+2].[Na+].[Na+]", "Potency": "active: 35.5 µM"}
    ]}
  ]
}
